pKd: −log10 of the molar value.
Tests used:
human IL-23 (human) [1] = target: human IL-23 (human) (UniProt Q9NPF7); experiment: SPR, Biacore T100, 37° C.; human IL-23 injected at 100 nM for 5 min after saturation of the captured antibody with human TNFα
human IL-23 (human) [2] = target: human IL-23 (human) (UniProt Q9NPF7); experiment: SPR, Biacore T100, antibody captured on protein A, 37° C., 1:1 model, n=3
[3] = target: human TNFα (soluble) (human) (UniProt P01375); experiment: as above
[4] = target: human TNFα (soluble) (human) (UniProt P01375); experiment: SPR, Biacore T100, 37° C.; 95.3 RU of antibody captured on protein A, human TNFα injected at 100 nM for 5 min
human IL-23 (human) [5] = target: human IL-23 (human) (UniProt Q9NPF7); experiment: cell-based or functional assay
[6] = target: human non-cleavable membrane bound TNFα on CHO cells (human) (UniProt P01375); experiment: cell-based or functional assay
[7] = target: human TNFα (soluble) (human) (UniProt P01375); experiment: cell-based or functional assay

additional binding signal (Δ RU) (human IL-23 (human) [1])	pKd (human IL-23 (human) [2])	koff (human IL-23 (human) [2]) [s⁻¹]	kon (human IL-23 (human) [2]) [M⁻¹ s⁻¹]	pKd [3]	koff [3] [s⁻¹]	kon [3] [M⁻¹ s⁻¹]	binding signal (Δ RU) [4]	inhibition of human IL-23 induced Stat 3 phosphorylation in Kit225 cells (IC50) (human IL-23 (human) [5]) [nM]	mIL22 Level (pg/mL) in plasma of mice challenged with human IL-23 (human IL-23 (human) [5]) [pg/mL]	CXCL1 Level (pg/mL) in plasma of mice challenged with human TNFα [7] [pg/mL]	Substance	inhibition of killing of L929 cells by human non-cleavable membrane bound TNFα CHO cells (IC50, MTT assay) [6] [nM]	inhibition of human TNFα-induced killing of L929 cells (IC50, MTT assay) [7] [nM]
57.3 Δ RU	9.92	0.0001	830000	10.02	0.0004	4.1e+06	32.4 Δ RU				exemplified bispecific antibody (anti-TNFα IgG1 with an anti-IL-23p19 scFv fused to the C-terminus of each heavy chain) (bispecific antibody; other documents disagree on this pair)		
								0.158	1.3	622	exemplified bispecific antibody (anti-TNFα IgG1 with an anti-IL-23p19 scFv fused to the C-terminus of each heavy chain)	0.755	0.233
